Results on one molecule are retold here after ChEMBL document CHEMBL1156930 (J Med Chem, 2010).

Where a SMILES comes first, the peptide text is derived from it. [ ]: non-standard residue; d: D form. The star is where a group is joined. NMeW = CN[C@@H](Cc1c[nH]c2ccccc12)C(=O)O; Palmitoyl = CCCCCCCCCCCCCCCC(=O)*

For the test, the species on record is Homo sapiens. Nature of the test: Selectivity ratio of Ki for human GalR2 to Ki for human GalR1.

For the molecule `CCCCCCCCCCCCCCCC(=O)NCCCC[C@H](NC(=O)[C@H](CCCCN)NC(=O)[C@H](CCCCN)NC(=O)[C@@H]1CCCN1C(=O)CNC(=O)[C@H](CC(C)C)NC(=O)[C@H](CC(C)C)NC(=O)[C@H](Cc1ccc(O)cc1)NC(=O)CNC(=O)[C@H](C)NC(=O)[C@H](CO)NC(=O)[C@H](CC(N)=O)NC(=O)[C@H](CC(C)C)NC(=O)[C@@H](NC(=O)[C@H](Cc1c[nH]c2ccccc12)NC)[C@@H](C)O)C(=O)N[C@@H](CCCCN)C(N)=O` (H-[NMeW]TLNSAGYLLGPKKK(Palmitoyl)K-NH2), the Ratio Ki amounted to 0.06.
